Experimental findings from patent publication US20020016370A1, “Exo-R-mecamylamine formulation and use in treatment” (priority 1998, published 2002) are described below.

Protein sequences, listed by entry. Tags and fused reporters are not part of them. Residues count along the entry.
UniProt P30926, 22-498: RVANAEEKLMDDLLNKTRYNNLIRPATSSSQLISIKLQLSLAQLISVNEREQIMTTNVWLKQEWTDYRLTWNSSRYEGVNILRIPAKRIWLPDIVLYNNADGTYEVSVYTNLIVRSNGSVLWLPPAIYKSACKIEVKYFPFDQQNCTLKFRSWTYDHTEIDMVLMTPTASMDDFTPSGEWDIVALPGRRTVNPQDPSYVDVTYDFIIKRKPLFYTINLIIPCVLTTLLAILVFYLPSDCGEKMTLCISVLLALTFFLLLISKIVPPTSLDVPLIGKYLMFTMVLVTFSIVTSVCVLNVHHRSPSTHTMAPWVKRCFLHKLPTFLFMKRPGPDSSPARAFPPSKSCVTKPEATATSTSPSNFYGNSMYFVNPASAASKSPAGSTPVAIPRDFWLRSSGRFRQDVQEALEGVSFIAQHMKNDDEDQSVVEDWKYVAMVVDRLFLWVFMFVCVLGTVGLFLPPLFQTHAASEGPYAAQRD
UniProt P32297, 32-505: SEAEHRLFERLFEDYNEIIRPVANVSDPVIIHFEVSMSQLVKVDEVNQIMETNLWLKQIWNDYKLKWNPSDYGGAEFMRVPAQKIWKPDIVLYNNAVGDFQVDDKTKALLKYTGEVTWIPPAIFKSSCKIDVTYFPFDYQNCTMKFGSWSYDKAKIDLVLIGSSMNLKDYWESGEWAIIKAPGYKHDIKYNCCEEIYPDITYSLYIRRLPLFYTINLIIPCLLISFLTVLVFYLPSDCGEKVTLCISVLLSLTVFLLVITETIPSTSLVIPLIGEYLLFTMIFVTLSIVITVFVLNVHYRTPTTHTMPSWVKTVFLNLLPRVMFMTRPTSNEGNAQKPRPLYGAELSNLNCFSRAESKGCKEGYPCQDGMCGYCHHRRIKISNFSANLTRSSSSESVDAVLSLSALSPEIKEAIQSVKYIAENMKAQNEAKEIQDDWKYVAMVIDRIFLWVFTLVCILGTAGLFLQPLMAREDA

This experiment deals with T1, human α3β4 receptors (Homo sapiens, UniProt P30926+P32297).
T1 construct: expressed in transfected cells; host or cells: Xenopus laevis oocytes injected with cRNA
Kind of experiment: Two-electrode voltage clamp, receptors expressed in Xenopus oocytes. It is filed as cell-based. (In general: Two-electrode voltage clamp is typically applied to oocytes expressing channels or transporters.)

As for `CN[C@]1(C)[C@H]2CC[C@H](C2)C1(C)C` [exo-R-mecamylamine], the “potency of inhibition, comparing the IC50 values across receptors” value is given as “most potent”.
